Only a part is listed here, and it is no random draw. Results filed as inconclusive are left out. Activity calls are given as the source filed them. Calls come from the whole dose curve; as a rule, active = well fitted inhibition curve with a large enough effect; inconclusive = small, poorly fitted or top-dose-only effect; inactive = no such curve, though single readings can be large or run the other way.
experiment: Primary qHTS for Inhibitors of ATXN expression; settings: HEK-293 ATXN2-luciferase reporter, luminescence, 24 h; series mostly up to 57 µM; activity change, negative = inhibition: at the top concentration; note: nearly all actives have a fitted effect of over 55% in size
% is set by controls: 0 for no effect and ±100 for the full control effect; potency is the fitted concentration of half-maximal effect.

With `NC(=O)Nc1ccc([As](=O)(O)O)cc1` as the molecule, how does the activity change, negative = inhibition read?
Its activity change, negative = inhibition is “inactive”.

With `CN(C(=O)Cc1ccc(Cl)c(Cl)c1)[C@H]1CC[C@@]2(CCCO2)C[C@@H]1N1CCCC1` as the molecule, how does the activity change, negative = inhibition read?
Its activity change, negative = inhibition is “inactive”.

For `O=[N+]([O-])c1ccc2c(c1)nnn2O`, which “activity change, negative = inhibition” value is on record?
Its value is inactive: -3.68%.

With `CCOP1(=S)c2c(C)nn(CCC#N)c2N=C(c2ccc(F)cc2)N1C` (stereo unspecified) as the molecule, how does the “activity change, negative = inhibition” value read?
The value was inactive: 5.55%.

Which “activity change, negative = inhibition” value does the source give for `CN(C(=O)Cc1ccccc1)[C@@H]1CC[C@]2(CCCO2)C[C@H]1N1CCCC1` here?
The value was inactive: 6.01%.

Which “activity change, negative = inhibition” value does the source give for `N#CCCN(C(=O)COC(=O)C(O)(c1ccccc1)c1ccccc1)c1ccc(F)cc1` here?
Its value is inactive: 0.597%.

Which “activity change, negative = inhibition” value does the source give for `CS(=O)(=O)c1cc([N+](=O)[O-])c2no[n+]([O-])c2c1` here?
The value was inactive: 6.67%.

With `O=P(Nc1nccs1)(c1ccccc1)c1nc2ccccc2s1` (stereo unspecified) as the molecule, how does the “activity change, negative = inhibition” value read?
Its value is inactive: 5%.

With `CCOP1(=S)c2c(C)nn(CCC#N)c2N=C(c2ccccc2F)N1C` (stereo unspecified) as the molecule, how does the “activity change, negative = inhibition” value read?
Its value is inactive: -7.93%.

For `Nc1ccccc1[As](=O)(O)c1ccccc1`, which “activity change, negative = inhibition” value is on record?
Its value is inactive: 22.3%.

With `CCn1c(=O)n([C@@H]2CCN(CC3CCCCCCC3)C[C@@H]2CO)c2ccccc21` as the molecule, how does the “activity change, negative = inhibition” value read?
The value was inactive: -26.8%.

With `O=C(O)COc1ccc([As](=O)(O)O)cc1[N+](=O)[O-]` as the molecule, how does the “activity change, negative = inhibition” value read?
The value was inactive: 7.4%.

For `Cc1ccc(NCCc2c([N+](=O)[O-])cc([N+](=O)[O-])cc2[N+](=O)[O-])cc1`, which “activity change, negative = inhibition” value is on record?
The value was inactive: 5.81%.

Which “activity change, negative = inhibition” value does the source give for `CCOP(=O)(Nc1cccc2ccccc12)OCC` here?
The value was inactive: -6.45%.

For `COc1cc(C2NCCC3(OCCO3)C2(C)C)cc(OC)c1OC` (stereo unspecified), which “activity change, negative = inhibition” value is on record?
The value was inactive: -10.4%.

Which “activity change, negative = inhibition” value does the source give for `CS(=O)(=O)c1ccc(Cl)c(NC(=O)COC(=O)C(O)(c2ccccc2)c2ccccc2)c1` here?
Its value is inactive: 3.67%.

With `COc1cc(C(=O)NCC2(N3CCOCC3)CCCCC2)cc(Cl)c1OC(C)C` as the molecule, how does the “activity change, negative = inhibition” value read?
Its value is inactive: -2.87%.

With `O=[As](O)(O)c1cccnc1` as the molecule, how does the “activity change, negative = inhibition” value read?
The value was inactive: -5.1%.

Which “activity change, negative = inhibition” value does the source give for `O=C(OC1CN2CCC1CC2)c1ccc(Cl)cc1` (stereo unspecified) here?
The value was inactive: -6.02%.

Which “activity change, negative = inhibition” value does the source give for `O=[As](O)(c1cccc(O)c1)c1cccc(O)c1` here?
The value was inactive: -25.9%.

With `Cc1cccc(OCC(=O)OC2CN3CCC2CC3)c1` (stereo unspecified) as the molecule, how does the “activity change, negative = inhibition” value read?
The value was inactive: -3.74%.

For `COc1ccccc1CNC(=O)COC(=O)C(O)(c1ccccc1)c1ccccc1`, which “activity change, negative = inhibition” value is on record?
Its value is inactive: -0.821%.

Which “activity change, negative = inhibition” value does the source give for `CC1(CBr)Cn2c(nc3ccccc3c2=O)S1` (stereo unspecified) here?
Its value is inactive: -2.98%.

Which “activity change, negative = inhibition” value does the source give for `CC(C)/C=N\N=C(\N)N[N+](=O)[O-]` here?
The value was inactive: -14.3%.

For `CN(C(=O)Cc1ccc(Cl)c(Cl)c1)[C@@H]1CCCC[C@H]1N1CCCC1`, which “activity change, negative = inhibition” value is on record?
Its value is inactive: -11.2%.

For `CN(CCCl)Cc1cc(Cl)c(NC2=NCCN2)c(Cl)c1`, which “activity change, negative = inhibition” value is on record?
Its value is inactive: -19.5%.

With `CCOP(=O)(NC(=NC(C)c1ccccc1)NC(C)c1ccccc1)OCC` (stereo unspecified) as the molecule, how does the “activity change, negative = inhibition” value read?
The value was inactive: 1.8%.

With `O=P1(Nc2ccccn2)COc2ccccc2OC1` as the molecule, how does the “activity change, negative = inhibition” value read?
The value was inactive: -3.95%.

With `CCC1=CC2Cc3nc4ccc(Cl)cc4c(N)c3C(C1)C2` (stereo unspecified) as the molecule, how does the Potency read?
The Potency was active: 28.2 µM.

For `O=P1(Nc2ncccn2)COc2ccccc2OC1`, which “activity change, negative = inhibition” value is on record?
Its value is inactive: 1.96%.

For `Cc1ccc(S(=O)(=O)N(CCCN)CCCc2c(C)nc(N)[nH]c2=O)cc1`, which “activity change, negative = inhibition” value is on record?
Its value is inactive: -20.6%.

Source: PubChem BioAssay AID1745845 (National Center for Advancing Translational Sciences (NCATS), 2022)
